Target: T1, prostasin (Homo sapiens, UniProt Q16651)
T1 construct: made in house; host or cells: CHO cells (transient transfection, pRK5E); purified from conditioned medium on aprotinin-agarose
Assay: Enzyme inhibition assay (amidolytic activity of prostasin towards S2765)
Type: biochemical
Conditions: prostasin 3 nM
Description: The increase in absorbance at 405 nm was monitored on a kinetic microplate reader (Molecular Devices, Sunnyvale, Calif.). The linear rates of the increase in absorbance were expressed as percentage activities (100%×vi/v0). […] At least three independent experiments were performed for each inhibitor.

Protein sequences, listed by entry. Tags and fused reporters are not part of them. Residues count along the entry.
UniProt Q16651, 45-322 limits assumed: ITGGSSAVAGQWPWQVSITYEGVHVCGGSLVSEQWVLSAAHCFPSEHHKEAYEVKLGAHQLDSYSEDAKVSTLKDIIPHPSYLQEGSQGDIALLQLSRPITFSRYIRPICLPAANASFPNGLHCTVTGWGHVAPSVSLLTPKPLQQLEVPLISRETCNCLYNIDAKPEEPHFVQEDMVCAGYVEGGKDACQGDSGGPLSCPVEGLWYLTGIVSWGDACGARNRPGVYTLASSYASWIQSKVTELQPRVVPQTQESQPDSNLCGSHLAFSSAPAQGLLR

Substance	inhibition of prostasin enzymatic activity (in words) (substrate S2765)	IC50 (substrate S2765 0.05 mM, TT buffer, 20 min preincubation at room temperature, averages ± S.D. of at least three independent experiments, read-out: IC50 (nM), effects of inhibitors on the activity of prostasin)
KD1: N-terminal Kunitz domain of HAI-1B, amino acids Thr246-Val303 of HAI-1B precursor, expressed in E. coli (SEQ ID NO:2) (TEDYCLASNKVGRCRGSFPRWYYDPTEQICKSFVYGGCLGNKNNYLREEECILACRGV; listed as Homo sapiens)	significantly more potent prostasin inhibitor than sHAI-1B	–
Aprotinin [reference compound]	–	1.2 ± 0.1 nM

From patent publication US7622265B2, “Methods and compositions for modulating prostasin” (Genentech, Inc., priority 2005, dated 2009)
